Experiment [1] addresses T1, Cholecystokinin receptor type A (Homo sapiens, UniProt P32238, L356H). The class given is cell-based, CHO.
Experiment [2] has as its target T2, Cholecystokinin receptor type A (Homo sapiens, UniProt P32238). The experiment in a line: Activity at CCK1R (unknown origin) expressed in CHO cells assessed as stimulation of intracellular calcium responses. The class given is functional, cell-based. The method, boiled down: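 Intact CHO cell lines stably expressing CCK1R or CCK2R; intracellular calcium measured after adding compound alone. […] Peak responses and EC50 values taken from concentration-response curves. Duplicate determinations, at least three independent experiments, means ± S.E.M.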
In general terms: A change in cytosolic calcium serves as a functional read-out for many receptors and channels.

By UniProt entry, the sequences of proteins in these tests, tags left out.
UniProt P32238, whole entry L356H: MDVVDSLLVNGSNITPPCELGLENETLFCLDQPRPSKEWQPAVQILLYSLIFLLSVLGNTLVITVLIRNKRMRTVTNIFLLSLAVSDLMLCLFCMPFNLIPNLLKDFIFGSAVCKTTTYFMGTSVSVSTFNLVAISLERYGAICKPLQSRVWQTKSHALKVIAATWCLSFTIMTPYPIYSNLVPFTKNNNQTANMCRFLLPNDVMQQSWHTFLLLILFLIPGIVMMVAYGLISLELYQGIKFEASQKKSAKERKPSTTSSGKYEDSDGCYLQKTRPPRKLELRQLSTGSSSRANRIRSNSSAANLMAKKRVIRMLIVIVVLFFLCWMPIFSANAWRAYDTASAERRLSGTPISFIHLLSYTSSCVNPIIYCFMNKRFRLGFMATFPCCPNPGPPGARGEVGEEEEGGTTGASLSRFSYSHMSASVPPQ
UniProt P32238, whole entry: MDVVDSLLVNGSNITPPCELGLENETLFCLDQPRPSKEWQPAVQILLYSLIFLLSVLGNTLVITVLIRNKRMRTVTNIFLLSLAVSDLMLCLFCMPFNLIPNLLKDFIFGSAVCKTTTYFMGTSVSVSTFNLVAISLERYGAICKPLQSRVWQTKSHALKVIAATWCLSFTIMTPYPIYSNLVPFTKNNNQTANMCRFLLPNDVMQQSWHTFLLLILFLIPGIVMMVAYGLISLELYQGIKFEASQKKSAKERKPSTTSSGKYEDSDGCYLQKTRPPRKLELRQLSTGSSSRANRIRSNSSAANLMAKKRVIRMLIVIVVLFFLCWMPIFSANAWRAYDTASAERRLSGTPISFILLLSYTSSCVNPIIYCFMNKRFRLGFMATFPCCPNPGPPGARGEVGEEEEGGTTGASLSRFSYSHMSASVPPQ
UniProt P32238, whole entry T117V/T118S: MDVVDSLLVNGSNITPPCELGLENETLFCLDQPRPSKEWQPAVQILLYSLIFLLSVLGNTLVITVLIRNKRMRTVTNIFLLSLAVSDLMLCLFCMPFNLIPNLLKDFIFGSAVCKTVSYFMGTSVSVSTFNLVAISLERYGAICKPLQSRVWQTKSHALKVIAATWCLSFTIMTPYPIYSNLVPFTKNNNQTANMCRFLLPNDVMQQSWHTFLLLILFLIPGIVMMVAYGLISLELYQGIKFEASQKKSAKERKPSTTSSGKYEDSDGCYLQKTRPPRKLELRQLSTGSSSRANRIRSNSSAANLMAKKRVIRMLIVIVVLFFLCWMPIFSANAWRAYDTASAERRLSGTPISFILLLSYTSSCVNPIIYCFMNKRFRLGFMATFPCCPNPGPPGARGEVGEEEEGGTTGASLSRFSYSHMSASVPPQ
UniProt P32238, whole entry N98T: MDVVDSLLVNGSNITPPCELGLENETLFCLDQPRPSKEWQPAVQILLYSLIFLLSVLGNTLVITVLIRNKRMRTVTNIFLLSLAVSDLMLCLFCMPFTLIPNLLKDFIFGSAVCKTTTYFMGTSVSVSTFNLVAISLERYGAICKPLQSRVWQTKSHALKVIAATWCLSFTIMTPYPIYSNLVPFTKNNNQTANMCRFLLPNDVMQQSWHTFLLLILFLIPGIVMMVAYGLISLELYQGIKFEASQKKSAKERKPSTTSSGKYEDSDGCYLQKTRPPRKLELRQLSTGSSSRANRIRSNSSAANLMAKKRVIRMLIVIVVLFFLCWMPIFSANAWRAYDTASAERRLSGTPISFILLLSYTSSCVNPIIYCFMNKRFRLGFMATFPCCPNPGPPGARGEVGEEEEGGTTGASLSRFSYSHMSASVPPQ

In experiment [3] the target is T3, Cholecystokinin receptor type A (Homo sapiens, UniProt P32238, T117V/T118S). The format is cell-based, CHO.
For experiment [4], the target named is T1, Cholecystokinin receptor type A. The format is cell-based, CHO. The source holds these as a separate data set.
Experiment [5] addresses T2, Cholecystokinin receptor type A. The format is cell-based. The settings on record: cho.
The target is the same in experiment [6]. The class given is cell-based. The settings on record: cho. This is another data set of the same source.
Experiment [7] addresses T3, Cholecystokinin receptor type A. The class given is cell-based, CHO. The source holds these as a separate data set.
For experiment [8], the target named is T2, Cholecystokinin receptor type A. The format is cell-based, CHO.
For experiment [9], the target named is T4, Gastrin/cholecystokinin type B receptor (Homo sapiens, UniProt P32239).
T4 sequence (P32239 whole entry): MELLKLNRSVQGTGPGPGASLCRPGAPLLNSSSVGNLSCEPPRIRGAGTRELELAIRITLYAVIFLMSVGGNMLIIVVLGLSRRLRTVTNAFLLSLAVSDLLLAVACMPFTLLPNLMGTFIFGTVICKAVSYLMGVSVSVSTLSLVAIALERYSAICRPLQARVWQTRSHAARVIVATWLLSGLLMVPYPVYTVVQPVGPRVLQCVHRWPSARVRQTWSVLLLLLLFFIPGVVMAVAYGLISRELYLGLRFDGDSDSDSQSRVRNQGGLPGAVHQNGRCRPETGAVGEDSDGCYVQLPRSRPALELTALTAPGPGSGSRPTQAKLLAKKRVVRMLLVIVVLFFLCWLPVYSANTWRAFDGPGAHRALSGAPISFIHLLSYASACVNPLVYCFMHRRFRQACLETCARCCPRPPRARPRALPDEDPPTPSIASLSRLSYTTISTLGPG
The class given is cell-based, CHO.

For experiment [10], the target named is Cholecystokinin receptor type A (Homo sapiens, UniProt P32238, N98T). The class given is cell-based, CHO.

The term IC50 denotes the point on the concentration scale where inhibition reaches its midpoint. A high value points to weaker potency in that assay. Broadly, the EC50 is the concentration at which the effect is half-maximal. Consider `O=C(CN1C(=O)C(NC(=O)Nc2ccccc2)C(=O)N(c2ccccc2)c2ccccc21)Nc1ccccc1` (stereo not given), for which the IC50 in [1] was 303 nM; in [3], 1000 nM; in [4], 505 nM; in experiment [5], greater than 1000 nM; in [6], 317 nM; in [7], 259 nM. The half-inhibitory concentration (IC50) is 541 nM in [8], 31.7 nM in experiment [9] and 128 nM in experiment [10]. In experiment [2], the EC50 was greater than 1000 nM.

The record behind these values is ChEMBL document CHEMBL3407371, “Elimination of a cholecystokinin receptor agonist 'trigger' in an effort to develop positive allosteric modulators without intrinsic agonist activity” (Bioorg Med Chem Lett, 2015).
